ChEMBL document CHEMBL4680319, “Synthesis and evaluation of tiaprofenic acid-derived UCHL5 deubiquitinase inhibitors” (Bioorg Med Chem, 2021)

Chains of the proteins cited; added tags and fusions are not shown.
UniProt Q9Y5K5, whole entry: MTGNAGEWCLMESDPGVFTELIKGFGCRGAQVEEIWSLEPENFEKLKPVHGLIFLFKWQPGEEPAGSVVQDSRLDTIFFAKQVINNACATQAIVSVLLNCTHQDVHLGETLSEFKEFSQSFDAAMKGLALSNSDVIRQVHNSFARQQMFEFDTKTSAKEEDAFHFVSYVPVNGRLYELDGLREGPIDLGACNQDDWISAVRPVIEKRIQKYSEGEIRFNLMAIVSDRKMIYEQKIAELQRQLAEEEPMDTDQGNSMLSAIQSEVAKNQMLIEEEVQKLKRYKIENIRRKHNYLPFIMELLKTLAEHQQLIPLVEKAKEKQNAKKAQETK

Biological target: Ubiquitin carboxyl-terminal hydrolase isozyme L5 (Homo sapiens, UniProt Q9Y5K5)
Test: Inhibition of N-terminal His6-tagged recombinant human UCHL5 expressed in Escherichia coli BL21 (DE3) codon cells assessed as reduction in cleavage of Ubiquitin-Rhodamine110-glycine to Ubiquitin and Rhodamine110-glycine using Ub-Rho 110 as substrate at 200 uM incubated for 30 mins by fluorescence based assay relative to control

**Q.** For `CC(C(=O)O)c1ccc(C(=O)c2ccccc2)s1` (stereo unspecified) [TIAPROFENIC ACID], which inhibition is on record?
**A.** 15%
